Assay results from ChEMBL document CHEMBL1828559, “Synthesis and characterization of high-affinity 4,4-difluoro-4-bora-3a,4a-diaza-s-indacene-labeled fluorescent ligands for human β-adrenoceptors” (J Med Chem, 2011).

Amino acid sequences for entries named in this document (tags omitted).
UniProt P08588, whole entry: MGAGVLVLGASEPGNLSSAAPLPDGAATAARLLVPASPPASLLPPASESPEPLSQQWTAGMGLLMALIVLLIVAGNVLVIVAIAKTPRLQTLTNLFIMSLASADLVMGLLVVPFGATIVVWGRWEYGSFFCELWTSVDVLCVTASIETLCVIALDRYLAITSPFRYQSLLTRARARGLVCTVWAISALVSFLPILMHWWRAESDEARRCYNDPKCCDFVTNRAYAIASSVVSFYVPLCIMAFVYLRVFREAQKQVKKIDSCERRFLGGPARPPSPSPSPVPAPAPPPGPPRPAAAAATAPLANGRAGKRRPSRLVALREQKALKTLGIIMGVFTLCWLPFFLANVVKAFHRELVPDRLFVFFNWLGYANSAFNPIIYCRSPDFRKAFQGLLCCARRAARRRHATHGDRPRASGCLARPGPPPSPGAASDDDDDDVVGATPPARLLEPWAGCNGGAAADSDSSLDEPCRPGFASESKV

Target: Beta-1 adrenergic receptor (Homo sapiens, UniProt P08588)
Experiment: Antagonist activity at human beta-1 adrenergic receptor site 2 expressed in CGP 12177-stimulated CHO-K1 cells assessed as CRE-SPAP level by […]

Kd: 178 nM
SMILES: C=CCc1ccccc1OCC(O)CNC(C)C (stereo unspecified) [ALPRENOLOL]
